Results on one compound are retold here after ChEMBL document CHEMBL1152852, “Substituted benzo[d]oxazol-2(3H)-one derivatives with preference for the sigma1 binding site” (Eur J Med Chem, 2009).

Amino acid sequences for entries named in this document (tags omitted).
UniProt Q9R0C9, whole entry: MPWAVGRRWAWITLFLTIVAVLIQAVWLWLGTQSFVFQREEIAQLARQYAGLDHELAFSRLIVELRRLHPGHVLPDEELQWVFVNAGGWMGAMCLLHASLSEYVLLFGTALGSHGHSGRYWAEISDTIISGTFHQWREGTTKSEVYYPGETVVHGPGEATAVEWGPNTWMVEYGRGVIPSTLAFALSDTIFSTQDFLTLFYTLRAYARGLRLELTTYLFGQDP

For assay [1], the species on record is Rattus norvegicus. The assay can be described thus: Selectivity ratio of Ki for rat liver sigma 2 receptor to Ki for rat liver sigma 1 receptor.
For assay [2], the target named is Sigma non-opioid intracellular receptor 1 (Rattus norvegicus, UniProt Q9R0C9). The experiment in a line: Displacement of [3H](+)-pentazocine from sigma 1 receptor in rat liver membrane. The format is cell membranes.

Structures are written as SMILES.

`O=c1oc2ccccc2n1CC1CCN(Cc2ccccc2Cl)CC1`: the Ratio Ki in assay [1] turned out to be 5. For the same compound, the Ki in assay [2] turned out to be 61 nM.
